# Results as given in PubChem BioAssay AID1477 (National Center for Advancing Translational Sciences (NCATS), 2009).
# By UniProt entry, the sequences of proteins in these tests, tags left out.
# UniProt Q01196, whole entry, looked up: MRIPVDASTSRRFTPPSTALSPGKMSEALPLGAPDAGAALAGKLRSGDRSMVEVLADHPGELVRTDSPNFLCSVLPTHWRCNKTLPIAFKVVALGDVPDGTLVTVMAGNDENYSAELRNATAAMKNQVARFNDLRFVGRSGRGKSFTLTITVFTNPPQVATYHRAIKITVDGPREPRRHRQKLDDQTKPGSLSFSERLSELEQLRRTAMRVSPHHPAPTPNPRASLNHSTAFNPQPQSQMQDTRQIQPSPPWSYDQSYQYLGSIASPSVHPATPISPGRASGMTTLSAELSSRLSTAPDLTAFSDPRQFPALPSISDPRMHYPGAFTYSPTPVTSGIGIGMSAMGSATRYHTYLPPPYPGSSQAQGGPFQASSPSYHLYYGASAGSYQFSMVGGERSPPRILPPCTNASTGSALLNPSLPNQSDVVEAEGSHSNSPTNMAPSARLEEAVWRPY
# UniProt Q13951, whole entry, looked up: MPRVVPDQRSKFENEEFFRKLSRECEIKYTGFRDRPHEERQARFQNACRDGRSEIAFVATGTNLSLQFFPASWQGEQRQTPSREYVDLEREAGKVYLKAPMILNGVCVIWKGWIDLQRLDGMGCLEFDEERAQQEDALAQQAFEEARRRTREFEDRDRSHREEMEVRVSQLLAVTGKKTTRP
# Several values for one entry are separate records, joined by “and”; a condition that tells them apart may be missing. Equal values may be shown once. Only a part is listed here, and it is no random draw. Inconclusive results are not listed. Activity calls are given as the source filed them. Calls follow the shape of the dose curve; as a rule, active = well fitted curve in the direction sought with a large enough effect; inconclusive = small, poorly fitted or top-dose-only effect, or effect the other way, or another doubt; inactive = no such curve, though single readings can be large or run the other way.
# Biological target: Runt-related transcription factor 1 (Homo sapiens) + Core-binding factor subunit beta (Homo sapiens) (UniProt Q01196+Q13951)
# Assay: qHTS Assay for Compounds Blocking the Interaction Between CBF-beta and RUNX1 for the Treatment of Acute Myeloid Leukemia; also: % of control where 0% means no effect
# Conditions: AlphaScreen CBFb-His/RUNX1-biotin binding, biochemical
# [1] = at 59.8 µM (top of the series) unless noted
structure (smiles),measurement,setting,value
O=[N+]([O-])c1ccc(Nc2ccc(Oc3ccc([N+](=O)[O-])cc3[N+](=O)[O-])cc2)c([N+](=O)[O-])c1,"activity, negative = inhibition",[1],inactive: -4.82%
CN(N=O)C(=N)N[N+](=O)[O-],"activity, negative = inhibition",[1],inactive: 27.8% [at 21.7 µM]
Cc1cc(SC(NC=O)C(Cl)(Cl)Cl)ncn1 (stereo not given),"activity, negative = inhibition",[1],inactive: -6.42%
O=P(Nc1ccccn1)(c1cccc2ccccc12)c1cccc2ccccc12,"activity, negative = inhibition",[1],inactive: -2.69%
CCOC(=O)Nc1cccc([As](=O)(O)O)c1,"activity, negative = inhibition",[1],inactive: 1.06%
Cc1cc(SC(NC(=O)c2ccccc2)C(Cl)(Cl)Cl)nc(C(C)C)n1 (stereo not given),"activity, negative = inhibition",[1],inactive: -5.39%
CCOC(=O)Nc1ccc([As](=O)(O)O)c(O)c1,"activity, negative = inhibition",[1],inactive: -1.77%
CCC(C)N(CC(C)C)C(=S)SC(NC(C)=O)C(Cl)(Cl)Cl (stereo not given),"activity, negative = inhibition",[1],inactive: 2.26%
CCOC(=O)c1ccc(NC(=O)C(C)(CCl)SC)cc1 (stereo not given),"activity, negative = inhibition",[1],inactive: 0.882%
O=C(COc1ccccc1)OC1CN2CCC1CC2 (stereo not given),"activity, negative = inhibition",[1],inactive: 4.87%
COP1(=S)c2c(C)nn(CCC#N)c2N=C(c2ccc(F)cc2)N1C (stereo not given),"activity, negative = inhibition",[1],inactive: 11.6%
COc1ccc(N/C(=N/P(=O)(N2CCOCC2)N2CCOCC2)N2CCOCC2)cc1,"activity, negative = inhibition",[1],inactive: -2.9%
COc1cc(I)ccc1[As](=O)(O)O,"activity, negative = inhibition",[1],inactive: 1.74%
COc1ccc2nc(NP(=O)(c3ccccc3)c3ccccc3)sc2c1,"activity, negative = inhibition",[1],inactive: -1.27%
Cc1cc(=O)[nH]c(N[N+](=O)[O-])n1,"activity, negative = inhibition",[1],inactive: 4.46%
O=C(OC1CN2CCC1CC2)C12CC3CC(CC(C3)C1)C2 (stereo not given),"activity, negative = inhibition",[1],inactive: 1.86%
Cc1c2c(nc3ccccc13)SC(C(Cl)Cl)C2 (stereo not given),"activity, negative = inhibition",[1],inactive: 2.22%
O=[N+]([O-])c1cc([N+](=O)[O-])c(-c2ccn[nH]2)s1,"activity, negative = inhibition",[1],inactive: -5.14%
CCN(CC)C(=S)SC(NC=O)C(Cl)(Cl)Cl (stereo not given),"activity, negative = inhibition",[1],inactive: 4.32%
CC(C)NC(=O)NP(=O)(Oc1ccccc1)Oc1ccccc1,"activity, negative = inhibition",[1],inactive: -1.19%
CC(C)c1ccc(OP(=O)(Nc2ccccn2)Oc2ccccc2F)cc1 (stereo not given),"activity, negative = inhibition",[1],inactive: 4.83%
ClCCSc1nnc(-c2cccnc2)o1,"activity, negative = inhibition",[1],inactive: -5.98%
Cc1ccc2nc3c(c(C)c2c1)CC(C(Cl)Cl)S3 (stereo not given),"activity, negative = inhibition",[1],inactive: 6.27%
Cc1ccc(OP(=O)(Nc2ccc([N+](=O)[O-])cn2)Oc2ccc(C)cc2)cc1,"activity, negative = inhibition",[1],inactive: -2.91%
C[As](=O)(O)c1cccc(C(=O)O)c1,"activity, negative = inhibition",[1],inactive: 10.2%
O=[As](O)(c1ccc(O)cc1)c1ccccc1O,"activity, negative = inhibition",[1],inactive: -14.9%
O=[N+]([O-])c1ccc2c(c1)nnn2O,"activity, negative = inhibition",[1],inactive: 0.981%
CCOP1(=S)c2c(C)nn(CCC#N)c2N=C(c2ccc(F)cc2)N1C (stereo not given),"activity, negative = inhibition",[1],inactive: 2.11%
CN(C(=O)Cc1ccccc1)[C@@H]1CC[C@]2(CCCO2)C[C@H]1N1CCCC1,"activity, negative = inhibition",[1],inactive: 6.95% and inactive: 8.62%
NC(=O)Nc1ccc([As](=O)(O)O)cc1,"activity, negative = inhibition",at 21.7 µM (top of the series),inactive: 11.3% and inactive: 2.13%
same,"activity, negative = inhibition",at 59.8 µM (top of the series),inactive: 5.62%
O=C(O)COc1ccc([As](=O)(O)O)cc1[N+](=O)[O-],"activity, negative = inhibition",[1],inactive: 6.35%
Nc1ccccc1[As](=O)(O)c1ccccc1,"activity, negative = inhibition",[1],inactive: 2.77%
CS(=O)(=O)c1cc([N+](=O)[O-])c2no[n+]([O-])c2c1,"activity, negative = inhibition",[1],inactive: -6.86%
O=P(Nc1nccs1)(c1ccccc1)c1nc2ccccc2s1 (stereo not given),"activity, negative = inhibition",[1],inactive: 9.5%
O=P(Nc1nccs1)(Oc1ccccc1)Oc1ccccc1,"activity, negative = inhibition",[1],inactive: -0.456%
CCOP1(=S)c2c(C)nn(CCC#N)c2N=C(c2ccccc2F)N1C (stereo not given),"activity, negative = inhibition",[1],inactive: 3.43%
CCOP(=O)(Nc1cccc2ccccc12)OCC,"activity, negative = inhibition",[1],inactive: 9.92%
COc1cc(C2NCCC3(OCCO3)C2(C)C)cc(OC)c1OC (stereo not given),"activity, negative = inhibition",[1],inactive: 9.24%
CCCOP(=S)(Nc1nc(N)cc(=O)[nH]1)OCCC,"activity, negative = inhibition",[1],inactive: -1.54%
Nc1cccc2c([As](=O)(O)O)cccc12,"activity, negative = inhibition",[1],inactive: 9.38%
O=[As](O)(c1cccc(O)c1)c1cccc(O)c1,"activity, negative = inhibition",[1],inactive: -12.8%
Cc1cccc(OCC(=O)OC2CN3CCC2CC3)c1 (stereo not given),"activity, negative = inhibition",[1],inactive: 1.9%
COc1cc(C(=O)NCC2(N3CCOCC3)CCCCC2)cc(Cl)c1OC(C)C,"activity, negative = inhibition",[1],inactive: 6.53%
O=[As](O)(O)c1cccnc1,"activity, negative = inhibition",[1],inactive: 7.06%
CN(C(=O)Cc1ccc(Cl)c(Cl)c1)[C@@H]1CC[C@]2(CCCO2)C[C@H]1N1CCCC1,"activity, negative = inhibition",[1],inactive: 7.72% and inactive: 2.88%
O=C(OC1CN2CCC1CC2)c1ccc(Cl)cc1 (stereo not given),"activity, negative = inhibition",[1],inactive: 8.93%
O=[As](O)(c1ccccc1Br)c1ccccc1Br,"activity, negative = inhibition",[1],inactive: 2.09%
CN(C(=O)Cc1ccc(Cl)c(Cl)c1)[C@@H]1CCCC[C@H]1N1CCCC1,"activity, negative = inhibition",[1],inactive: 7.24% and inactive: 5.77% and inactive: -3.9%
CC(C)/C=N\N=C(\N)N[N+](=O)[O-],"activity, negative = inhibition",[1],inactive: -15.9%
CC(C)(C)C(=O)NC(Sc1ncccn1)C(Cl)(Cl)Cl (stereo not given),"activity, negative = inhibition",[1],inactive: 5.1%
Clc1n[nH]nc1-c1nn[nH][15n]1,"activity, negative = inhibition",[1],inactive: 1.86%
CN(CCCl)Cc1cc(Cl)c(NC2=NCCN2)c(Cl)c1,"activity, negative = inhibition",[1],inactive: 11% and inactive: -5.8%
CCOP(=O)(Nc1ccc(C)cn1)OCC,"activity, negative = inhibition",[1],inactive: 8.03%
O=P1(Nc2ccccn2)COc2ccccc2OC1,"activity, negative = inhibition",[1],inactive: 9.32%
O=P1(Nc2ccc(Br)cn2)COc2ccccc2OC1,"activity, negative = inhibition",[1],inactive: 7.14%
O=[As](O)(c1cccs1)c1cccs1,"activity, negative = inhibition",[1],inactive: 16.4%
Cc1ccc(OCC(=O)OC2CN3CCC2CC3)cc1 (stereo not given),"activity, negative = inhibition",[1],inactive: 4.83%
Nc1cccc([As](=O)(O)c2ccccc2)c1,"activity, negative = inhibition",[1],inactive: -6.08%
O=P1(Nc2ncccn2)COc2ccccc2OC1,"activity, negative = inhibition",[1],inactive: -14.6%
O=C(/C=C/c1ccccc1)OC1CN2CCC1CC2 (stereo not given),"activity, negative = inhibition",[1],inactive: 6.85%
CN(C)C1(CNC(=O)c2ccc(S(C)(=O)=O)cc2)CCCCC1,"activity, negative = inhibition",[1],inactive: 20.7%
CC1CCC(C(C)C)C(OP(=O)(Nc2ccccn2)c2ccccc2)C1 (stereo not given),"activity, negative = inhibition",[1],inactive: -7.13%
Cc1nn(-c2ccccc2)c2c1P(=O)(N1CCOCC1)N(C)C(c1ccccc1)=N2 (stereo not given),"activity, negative = inhibition",[1],inactive: -0.773%
Nc1ccc([As](=O)(O)c2ccc([N+](=O)[O-])cc2)cc1,"activity, negative = inhibition",[1],inactive: -14.3%
